Assay results: ChEMBL document CHEMBL5360553, “C(21)-fluorinated thevinol scaffold for opioid ligands. 21,21,21-Trifluoro-6-O-nororvinols: Design, synthesis and analgesic activity” (2023)

Experiment: Toxicity against naive Swiss mouse assessed as lethality measured at 0.1 to 10 mg/kg measured after 7 days
Details: in vivo, 168 h

## C[C@@](O)([C@H]1C[C@@]23C=C[C@]1(O)[C@@H]1Oc4c(O)ccc5c4[C@@]12CCN(CC1CC1)[C@@H]3C5)C(F)(F)F.Cl
  Activity: Non-Toxic
